# Measured values reported in ChEMBL document CHEMBL3621108, “Discovery, Development, and SAR of Aminothiazoles as LIMK Inhibitors with Cellular Anti-Invasive Properties” (J Med Chem, 2015).
# Tested on: CASK, calcium/calmodulin-dependent serine protein kinase (Homo sapiens)
# Details: 10 uM
smiles,measurement,value
COc1ccc(-c2cnccc2-c2cnc(NC(=O)C(C)C)s2)c(C(F)(F)F)c1,inhibition,> 90%
